Laboratory results: ChEMBL document CHEMBL3259781 (J Med Chem, 2014)

Sequences of proteins named here, by UniProt entry; tags and fusion partners are left off.
UniProt P25099, whole entry: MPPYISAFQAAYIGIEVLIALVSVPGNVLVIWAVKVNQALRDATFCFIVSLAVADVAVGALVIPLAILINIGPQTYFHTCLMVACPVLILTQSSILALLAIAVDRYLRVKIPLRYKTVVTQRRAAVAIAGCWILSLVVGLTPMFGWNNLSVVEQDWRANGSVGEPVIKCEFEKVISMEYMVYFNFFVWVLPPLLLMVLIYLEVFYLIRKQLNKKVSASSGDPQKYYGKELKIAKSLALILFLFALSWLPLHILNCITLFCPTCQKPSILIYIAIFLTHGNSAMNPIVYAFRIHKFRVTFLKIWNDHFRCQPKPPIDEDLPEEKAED

How the values were obtained:
Adenosine receptor A1 [1] = molecular target: T1, Adenosine receptor A1 (Rattus norvegicus, UniProt P25099); experiment: Binding affinity to rat recombinant adenosine A1 receptor
Adenosine receptor A1 [2] = molecular target: T1, Adenosine receptor A1
Homo sapiens = species: Homo sapiens; experiment: Selectivity ratio of Ki for human recombinant adenosine A1 receptor to Ki for human recombinant adenosine receptor A2a

SMILES: Nc1nc(Nc2ccccc2)nc2c1ncn2[C@@H]1O[C@H](CO)[C@@H](O)[C@H]1O
- Ki (Adenosine receptor A1 [1]): 400 nM

SMILES: Cc1cc(-c2nnc(N)nc2-c2ccccc2)cc(C(F)(F)F)n1
- AUC (in vivo): 846 ng·h/mL

SMILES: Nc1nc2ccc(Cl)cc2c2nc(-c3ccco3)nn12 [CGS-15943]
- Ki (Adenosine receptor A1 [2]): 3.5 nM

SMILES: Cc1cc(Cn2nnc3c(-c4ccco4)nc(N)nc32)ccc1N [VIPADENANT]
- Ratio Ki (Homo sapiens): 52
